By UniProt entry, the sequences of proteins in these tests, tags left out.
UniProt Q92847, whole entry: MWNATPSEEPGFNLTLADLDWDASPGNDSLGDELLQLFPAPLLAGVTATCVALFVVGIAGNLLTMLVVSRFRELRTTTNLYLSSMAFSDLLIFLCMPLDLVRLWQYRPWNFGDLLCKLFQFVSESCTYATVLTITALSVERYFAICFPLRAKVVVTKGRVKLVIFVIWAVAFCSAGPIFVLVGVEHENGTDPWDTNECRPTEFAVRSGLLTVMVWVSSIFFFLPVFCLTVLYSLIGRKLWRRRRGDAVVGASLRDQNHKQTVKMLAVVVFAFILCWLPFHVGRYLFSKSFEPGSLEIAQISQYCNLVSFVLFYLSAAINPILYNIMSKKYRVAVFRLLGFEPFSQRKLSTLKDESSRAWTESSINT

In publication PMC8568970 (Nature Communications, 2021):

Biological target: T1, wild-type human ghrelin receptor (GHSR), cryo-EM construct (human, UniProt Q92847)
T1 construct: growth hormone secretagogue receptor (ghrelin receptor), human, wild type; also called growth hormone secretagogue receptor; source: Sf9 insect cells (baculovirus), purified (nickel Sepharose, anti-Flag M1 resin, SEC) in detergent; not shown: Flag, N-terminal, kept
Assay: cryo-EM structure; ghrelin-GHSR-Gi-scFv16 complex; GHSR mixed with Gi heterotrimer 1:1.2, apyrase, anti-Flag M1 resin, 1.2 molar excess scFv16, SEC in 20 mM HEPES pH 7.5, 100 mM NaCl, 0.002% MNG, 0.001% CHS, 1 μM ghrelin; Conformer 1 at 2.7 Å and a minor Conformer 2 at 3.5 Å
Conditions: both partners purified

B1: wild-type Gαi1 (natural protein, human)
chain: MGCTLSAEDKAAVERSKMIDRNLREDGEKAAREVKLLLLGAGESGKSTIVKQMKIIHEAGYSEEECKQYKAVVYSNTIQSIIAIIRAMGRLKIDFGDSARADDARQLFVLAGAAEEGFMTAELAGVIKRLWKDSGVQACFNRSREYQLNDSAAYYLNDLDRIAQPNYIPTQQDVLRTRVKTTGIVETHFTFKDLHFKMFDVGGQRSERKKWIHCFEGVTAIIFCVALSDYDLVLAEDEEMNRMHESMKLFDSICNNKWFTDTSIILFLNKKDLFEEKIKKSPLTICYPEYAGSNTYEEAAAYIQCQFEDLNKRKDTKEIYTHFTCATDTKNVQFVFDAVTDVIIKNNLKDCGLF
notes: Nucleotide-free in the complex (apyrase); also called human Gαi; source: Sf9 insect cells, co-expressed with Gβ1 and Gγ2, purified (nickel resin, anion exchange)
B1: binds.
